The test is described as follows: Antioxidant activity assessed as interaction reducing activity with DPPH at 50 uM measured after 20 mins by absorbance based assay. The test is classed as functional. More on the design: scale not given: the % may be the effect or the level left. In general terms: Loss of DPPH colour is used to gauge radical scavenging.

For `CC(Cc1ccc(O)c(O)c1)C(C)Cc1ccc(O)c(O)c1` (stereo unspecified) [NORDIHYDROGUAIARETIC ACID], the Activity amounted to 81%.

For the origin of these results see ChEMBL document CHEMBL5543074, “Synthesis, antioxidant and neuroprotective analysis of diversely functionalized α-aryl-N-alkyl nitrones as potential agents for ischemic stroke therapy” (Eur J Med Chem, 2024).
